Laboratory results: patent US5128242A, “Hypothalamic polypeptides with adenylate cyclase stimulating activity” (The Administrators of the Tulane Educational Fund, priority 1989, dated 1992)

Test system: superfused pituitary cells
Assay: Superfusion method using rat pituitary cell column: release of pituitary hormones
Assay type: cell-based
Details: 3 min pulse, 10^-10 to 10^-6 M; bell-shaped dose response
Protocol: FIGS. 5A-5D. The effect of synthetic PACAP38 on the release of pituitary hormones from superfused pituitary cells. A pituitary cell superfusion method to determine the hypophysiotropic activity of samples was conducted as reported by Vigh and Schally. The peptide was applied as a 3 min pulse. The numbers at top indicate; 1,7: 100 mM KCl, 2: 10^-10 M PACAP38, 3: 10^-9 M PACAP38, 4: 10^-8 M PACAP38, 5: 10^-7 M PACAP38, 6: 10^-6 M PACAP38. 0.9 ml fractions were collected every 3 min.
A pituitary cell superfusion method to determine the hypophysiotropic activity of samples was conducted as reported by Vigh and Schally (1984). Pituitaries obtained from 3 adult female rats were cut into small pieces and incubated in a Dubnoff incubator for 45 min at 37° C. in 10 ml of oxygenated Medium 199 (Gibco/Life Technologies) containing 0.5% collagenase (Sigma Type I), 0.25% BSA and […] gentamicin sulphate (Sigma). After this incubation, there were no apparent changes in the pituitary tissue, but the fragments could be easily dispersed into single cells by repeated suction and expulsion from a Pasteur pipet. After 30 to 60 pipet operations, the tissue fell apart. The cell suspension was centrifuged at room temperature for 10 min at 100×g. The cell pellet was then resuspended in 1.0 ml medium. A small aliquot was diluted to count the cells, and the remainder of the suspension was divided into 2 equal volumes. Each volume (containing about 5×10^6 cells and usually between 3.5 and 7.0×10^6) was mixed with 0.5 ml Sephadex G-15 which had been equilibrated with previously oxygenated medium. The mixture of pituitary cells and Sephadex was transferred into 2 chambers of the superfusion apparatus and perfused with the medium. The medium was always freshly prepared in a way similar to that for enzymatic dispersion, omitting the collagenase, then passed through a Millipore filter, and continuously gassed with a mixture of O2 (95%) and CO2 (5%) during the experiment. […]

CC[C@H](C)[C@H](NC(=O)CNC(=O)[C@H](CC(=O)O)NC(=O)[C@H](CO)NC(=O)[C@@H](N)Cc1c[nH]cn1)C(=O)N[C@@H](Cc1ccccc1)C(=O)N[C@H](C(=O)N[C@@H](CC(=O)O)C(=O)N[C@@H](CO)C(=O)N[C@@H](Cc1ccc(O)cc1)C(=O)N[C@@H](CO)C(=O)N[C@@H](CCCNC(=N)N)C(=O)N[C@@H](Cc1ccc(O)cc1)C(=O)N[C@@H](CCCNC(=N)N)C(=O)N[C@@H](CCCCN)C(=O)N[C@@H](CCC(N)=O)C(=O)N[C@@H](CCSC)C(=O)N[C@@H](C)C(=O)N[C@H](C(=O)N[C@@H](CCCCN)C(=O)N[C@@H](CCCCN)C(=O)N[C@@H](Cc1ccc(O)cc1)C(=O)N[C@@H](CC(C)C)C(=O)N[C@@H](C)C(=O)N[C@@H](C)C(=O)N[C@H](C(=O)N[C@@H](CC(C)C)C(=O)NCC(=O)N[C@@H](CCCCN)C(=O)N[C@@H](CCCNC(=N)N)C(=O)N[C@@H](Cc1ccc(O)cc1)C(=O)N[C@@H](CCCCN)C(=O)N[C@@H](CCC(N)=O)C(=O)N[C@@H](CCCNC(=N)N)C(=O)N[C@H](C(=O)N[C@@H](CCCCN)C(=O)N[C@@H](CC(N)=O)C(=O)N[C@@H](CCCCN)C(N)=O)C(C)C)C(C)C)C(C)C)[C@@H](C)O [PACAP38]
stimulated release: ACTH release | GH release | PRL release
